Data reported in patent US7919584.

Molecular target: GST-FLJ31349 PDZ domain fusion protein (human) [GST: P08515]
Assay: modified G assay, peptide titrated against a constant amount of immobilized GST-PDZ fusion; Hill fit

Substance: Tat-CLCA3 peptide (11 residues of Tat coupled to the C-terminal 9 amino acids of mCLCA3), biotinylated
- EC50: 600 nM
